Experimental data as given in patent US20250002463A1, “NEW SALT FORMS OF AMILORIDE AND ITS DERIVATIVES FOR PHARMACEUTICAL USE” (PSOMRI Holding AB, priority 2021, published 2025).

Experiments:
[1] = Aqueous solubility of salts, Example 1 (aliquot addition; HPLC after 24 h at RT; pH of solutions/mother liquors); details: pH of aqueous solutions/mother liquors of the solubility test
Procedure: The aqueous solubility of the salts was estimated qualitatively by the solvent aliquot addition method. Aliquots of water up to 500-600 μL were added to approximately 5 mg of salt. The solubility of the free base was also estimated.
The suspensions were let equilibrating at room temperature for 24 h. Afterwards, solids were separated from the liquid phases. The liquid phases were filtered and analyzed by HPLC to determine the solubility. The pH of solutions/mother liquors was also measured.
Suspensions of the two salts were prepared in water with a concentration of 9-10 mg/mL. The mixtures were let equilibrating at RT for 24 h. Afterwards, solids were separated from the liquid phases. The liquid phases were filtered and analyzed by HPLC to determine the solubility. The pH of mother liquors was also measured.

[2] = Kinetic and thermodynamic solubility in water at 37° C. (1 h and 18 h, UPLC); details: 30 mg/ml suspension

Row | pH after 18 h [2] | SMILES | pH [1]
1 | – | CC(=O)O.NC(=NC(=O)c1nc(Cl)c(N)nc1N)NCc1ccccc1 [ACA1] | 6.4
2 | – | CC(=O)O.NC(=NC(=O)c1nc(Cl)c(N)nc1N)NCc1ccccc1 [ACA2] | 6.6
3 | – | N=C(NCc1ccccc1)NC(=O)c1nc(Cl)c(N)nc1N.O=C(O)c1ccccc1 [BNZ1] | 7.5
4 | – | N=C(NCc1ccccc1)NC(=O)c1nc(Cl)c(N)nc1N.O=C(O)c1ccccc1 [BNZ2] | 7.2
5 | – | NC(=NC(=O)c1nc(Cl)c(N)nc1N)NCc1ccccc1.O=C(O)c1ccccc1 [BNZ3] | 4.5
6 | – | Cl.N/C(=N\C(=O)c1nc(Cl)c(N)nc1N)NCc1ccccc1 [Benzamil HCl SM1, reference compound] | 6.6
7 | – | NC(=NCc1ccccc1)NC(=O)c1nc(Cl)c(N)nc1N [Benzamil free base, 3,5-diamino-N—(N′-benzylcarbamimidoyl)-6-chloropyrazine-2-carboxamide] | 8.1
8 | – | CC(O)C(=O)O.NC(=NCc1ccccc1)NC(=O)c1nc(Cl)c(N)nc1N [LAC1] | 6.1
9 | – | NC(=NC(=O)c1nc(Cl)c(N)nc1N)NCc1ccccc1.O=[N+]([O-])O [NIT5] | 5.7
10 | – | NC(=NC(=O)c1nc(Cl)c(N)nc1N)NCc1ccccc1.O=P(O)(O)O [PHO2] | 4.5
11 | – | NC(=NC(=O)c1nc(Cl)c(N)nc1N)NCc1ccccc1.NC(=NC(=O)c1nc(Cl)c(N)nc1N)NCc1ccccc1.O=S(=O)(O)O [SUL1] | 6.6
12 | – | N=C(NCc1ccccc1)NC(=O)c1nc(Cl)c(N)nc1N.O=C(O)C(O)C(O)C(=O)O [TAR1] | 3.2
13 | 6.1 | NC(=NCc1ccccc1)NC(=O)c1nc(Cl)c(N)nc1N.O=C(O)C(F)(F)F [TFA2] | –
14 | – | Cc1ccc(S(=O)(=O)O)cc1.NC(=NC(=O)c1nc(Cl)c(N)nc1N)NCc1ccccc1 [TOS1] | 7.4
